Literature values, collected in patent US5744455A (priority 1993, dated 1998).

System: myocardial lesions
Conditions: in vivo

C[C@@H](CN1CC(=O)NC(=O)C1)N1CC(=O)NC(=O)C1 [ICRF 187, (+)-1,2-bis(3,5-dioxopiperazinyl-1-yl)propane]
animals with cardiac lesions absent: two | animals with minimal cardiac lesions: five of the seven
